Results published in patent publication US12616751B2, “Photosensitizing antibody-fluorophore conjugates” (The USA, as represented by the Secretary, Department of …, priority 2010, dated 2026).

Key:
[1] = tested on: 3T3/HER2+ cells; assay: Photoimmunotherapy (PIT) phototoxicity, LIVE/DEAD assay; assay type: cell-based
Protocol: Cells were grown in RPMI 1640 supplemented with 10% fetal bovine serum and 1% penicillin/streptomycin in tissue culture flasks in a humidified incubator at 37° C. in an atmosphere of 95% air and 5% carbon dioxide.
Culture medium was replaced with phenol red-free medium after washing with phosphate buffered saline (PBS).

[2] = tested on: Balb/3T3/DsRed cells; assay: PIT and microscopy in receptor-negative control cells; assay type: cell-based
Protocol: HER2 gene-transfected NIH3T3 (3T3/HER2+) cells were used for target photodynamic therapy (PDT). As a control, Balb/3T3 cells which express DsRed fluorescent protein but not HER2 (Balb/3T3/DsRed) were employed. Cells were grown in RPMI 1640 supplemented with 10% fetal bovine serum and 1% penicillin/streptomycin in tissue culture flasks in a humidified incubator at 37° C. in an atmosphere of 95% air and 5% carbon dioxide.
EGFR-expressing A431 cells were used as the target HER1+ cells. […] Cells were grown in RPMI 1640 supplemented with 10% fetal bovine serum and 1% penicillin/streptomycin in tissue culture flasks in a humidified incubator at 37° C. in an atmosphere of 95% air and 5% carbon dioxide. A431 or Balb/3T3/DsRed cells were seeded on cover glass-bottomed dishes and incubated for 24 hours. Pan-IR700 was added to the culture medium at 10 μg/mL and incubated either for 1 hour on ice or 6 hours at 37° C., then cells were washed with PBS. Culture medium was replaced with phenol red-free medium after washing with phosphate buffered saline (PBS).

[3] = tested on: 3T3/HER2+ cells; assay: Fluorescence microscopy, subcellular localization of IR700; assay type: cell-based; settings: after 1 h and 6 h incubation; power density 2.2 mW cm-2
Protocol: Fluorescence microscopy was performed with a BX51 or IX81 microscope (Olympus America, Melville, N.Y.). The filter was set to detect IR700 and consisted of a 590-650 nm excitation filter, and a 665-740 nm band pass emission filter. To detect DsRed protein, a filter set consisting of a 480-550 nm excitation filter, and a 590 nm long pass emission filter was employed.
Fluorescence microscopy was performed to test the subcellular localization of IR700 in 3T3/HER2+ cells. Cells were seeded on cover glass-bottomed dishes and incubated for 24 hours.

[4] = tested on: Balb/3T3 tumors; assay: In vivo imaging and PIT of Balb/3T3 tumor xenografts; set-up: species or system mice; settings: mouse
[5] = tested on: 3T3/HER2 lung metastases; assay: PIT of lung metastases
[6] = tested on: 3T3/HER2 cells; assay: Long term viability/growth after PIT (microscopy, trypan blue); assay type: cell-based
[7] = tested on: SKOV3 cells; assay: In vitro PIT, microscopy before and after; assay type: cell-based
Protocol: (§1) For photoimmunotherapy (PIT), cells were seeded on 35 mm cover glass-bottomed dishes and incubated 24 hours. […] Culture medium was replaced with phenol red-free medium after washing with phosphate buffered saline (PBS). Cells were irradiated with light at 670 nm to 690 nm using a red light emitting diode (LED; FluorVivo; INDEC Systems Inc., Capitola, Calif.) with a power density of 2.6 mW cm^−2 as measured with optical power meter (PM 100, Thorlabs, Newton, N.J.). Cell viability was assessed 1 hour after treatment with LIVE/DEAD® Fixable Green Dead Cell Stain Kit (Invitrogen). After the treatment, cells were trypsinized and washed with PBS. Green fluorescent reactive dye was added in the cell suspension and incubated at room temperature for 30 minutes. Cells were then analyzed on flow cytometer (FACS Calibur, BD BioSciences, San Jose, Calif.).
(§2) This example describes additional results showing that the disclosed antibody-IR700 compounds selectively kill cells that express the appropriate protein. The photoimmunotherapy (PIT) methods are described in Example 2.

[8] = tested on: MDA-MB-453 cells; assay: In vitro PIT, microscopy before and after; assay type: cell-based
Protocol: as §1, §2

[9] = tested on: SHAW cells; assay: In vitro PIT, microscopy before and after; assay type: cell-based
Protocol: as §1, §2

[10] = tested on: 3T3/HER2+ tumors; assay: In vivo imaging and PIT of 3T3/HER2+ tumor xenografts
[11] = tested on: 3T3/HER2 tumors; assay: In vivo delivery of Tra-IR800 after Tra-IR700 PIT; set-up: species or system mice; settings: 50 J/cm2 to right side tumor; agent 1 h after PIT
Description: In vivo fluorescence imaging. Five days after injection of two million A431 or 3T3-HER2 cells in right and left dorsums, and seven days after MDA-MB-468 cells injection in mammary pads, tumor volumes of approximately 75 mm^3 were selected. Signals of IR700 and IR800 was detected with a fluorescence camera (Pearl Imager, LI-COR Biosciences) using the 700 and 800 nm fluorescence channel Qdot800 was detected with Maestro in vivo Imaging System (CRi) using a band-pass filter, which ranges between 575 to 605 nm (excitation) and a long-pass NIR filter over 800 nm (emission). Fluorescence images of daunorubicin were also obtained with Maestro using a band-pass filter from 503 to 555 nm (excitation) and a long-pass green filter over 580 nm (emission). The tunable emission filter was automatically stepped in 10 nm increments from 650 to 950 nm and from 500 to 800 nm for the NIR and green filter sets at constant exposure. The spectral fluorescence images consist of autofluorescence spectra and the spectra from Qdot800 and daunorubicin, which were then unmixed, based on their spectral patterns using commercial software (Maestro software; CRi). Mice were sacrificed with carbon dioxide immediately after in vivo imaging. The tumors were excised, and frozen or paraffin-embedded for histological study and fluorescence microscopy study after ex vivo imaging. […]

Tra-IR700: Trastuzumab (humanized anti-HER2 mAb) conjugated to IRDye 700DX; about 3 IR700 per antibody
phototoxic effect without washing cells prior to irradiation [1]: did not influence the phototoxic effect | phototoxicity with excess unconjugated trastuzumab [1]: dose-dependently blocked | phototoxicity, 1 h versus 6 h incubation [1]: no significant difference in phototoxicity | cell killing by PIT (microscopy) ([1]; FIG. 8): specifically killed | cell death versus light dose ([1]; LIVE/DEAD, 1 hour after PIT): light dose dependent | percentage of cell death in presence of sodium azide ([1]; NaN3 in medium during irradiation): partially decreased | phototoxicity in co-culture ([2]; 1.0 J cm^−2 after 1 or 6 hours incubation at 37° C.): did not show phototoxicity upon irradiation | long term growth inhibition ([2]; Balb/3T3 (HER2 negative) cells exposed to light): long term growth inhibition was not observed | cell changes induced by excitation light [3]: cellular swelling, bleb formation, and rupture of vesicles representing necrotic cell death | therapeutic effect of irradiation [4]: did not show significant therapeutic effect | lung metastases ([5]; 100 μg i.v., 30 J/cm2 NIR light 2 days later): lung metastases cleared | overall survival time ([5]; […]): increase in the overall survival time | viability, trypan blue dye exclusion ([6]; PDT 2.0 J cm^−2, versus conjugate only, PDT only, no treatment): significantly reduced viability | cell killing by PIT (microscopy) [7]: specifically killed | cell killing by PIT (microscopy) [8]: specifically killed | cell killing by PIT (microscopy) [9]: specifically killed | other localization of IR700 (biodistribution) ([10]; 300 μg): No other specific localization of IR700 was found except for the bladder accumulation on day 1 | tumor growth ([10]; 300 μg i.v., 50 J cm^−2, day 4, 7, 10 and 14 after treatment): significant tumor growth inhibition | tumor shrinkage of irradiated tumor ([10]; 300 μg, NIR light on day 1): Tumor shrinkage was confirmed on day 7 | lethal side effects ([10]; during or after the treatment): no lethal side effects were found

Tra-IR800: trastuzumab conjugated to IRDye 800CW
tumor shown in dynamic images [11]: only the right sided tumor was clearly shown up within 10 min

trastuzumab: recombinant humanized monoclonal antibody against extracellular domain of HER2 [reference compound]
growth with unconjugated antibody ([6]; dose used): did not reduce growth
